System: T cell clone BRI.4-10
Assay: prepulse antagonism assay, response to GAD65 555-567, clone BRI.4-10
Type: cell-based, human
Settings: clone BRI.4-10, APC pre-pulsed with agonist peptide 555-567

| Compound | effect on T cell proliferative response (in words) |
| --- | --- |
| CC[C@H](C)[C@H](NC(=O)[C@@H](NC(=O)[C@H](CCSC)NC(=O)[C@H](CCCNC(=N)N)NC(=O)[C@H](Cc1ccccc1)NC(=O)[C@H](Cc1ccccc1)NC(=O)[C@@H](N)CC(N)=O)C(C)C)C(=O)N[C@@H](CO)C(=O)N[C@@H](CCC(N)=O)C(=O)N1CCC[C@H]1C(=O)N[C@@H](C)C(=O)N[C@@H](C)C(=O)N[C@H](C(=O)O)[C@@H](C)O [563 Q] | no effect |
| CCCC[C@H](NC(=O)[C@H](CCCNC(=N)N)NC(=O)[C@H](Cc1ccccc1)NC(=O)[C@H](Cc1ccccc1)NC(=O)[C@@H](N)CC(N)=O)C(=O)N[C@H](C(=O)N[C@H](C(=O)N[C@@H](CO)C(=O)N[C@@H](CC(N)=O)C(=O)N1CCC[C@H]1C(=O)N[C@@H](C)C(=O)N[C@@H](C)C(=O)N[C@H](C(=O)O)[C@@H](C)O)[C@@H](C)CC)C(C)C [559 Nle] | no effect |
